Values quoted from earlier work as cited in patent US20190321331A1, “COMPRESSED TABLETS FOR GIVING BIRTH TO FEMALES” (priority 2016, published 2019).

Details: one liter each, administered intravenously

Question: With “Albumin: albumin solution; human plasma protein” as the substance, how does the “distribution of the solution among the three regions (intracellular, intercellular, blood vessels)” value read?
Answer: not distributed and precipitated inside the blood vessels
